According to ChEMBL document CHEMBL3997795, “Conjugates of 2,4-Dihydroxybenzoate and Salicylhydroxamate and Lipocations Display Potent Antiparasite Effects by Efficiently Targeting the Trypanosoma brucei and Trypanosoma congolense Mitochondrion” (J Med Chem, 2017):

What was measured:
HEK-293T = assay: Cytostatic activity against HEK293T cells after 30 hrs by resazurin based fluorimetric assay; format: cell-based; settings: human
[1] = Cytotoxicity against HEK cells up to 50 uM after 30 hrs by resazurin based fluorimetric assay; format: cell-based; settings: human

With `O=[As]c1ccccc1` (configuration not stated) the CC50 (HEK-293T) was 0.29 µM and the Activity [1] was “Non-Toxic”.
